Literature values, collected in paper PMC6527222 (PLoS ONE, 2019).

Molecular target: β2-AR
Settings: given as negative log value; cited from earlier work

For COCCc1ccc(OCC(O)CNC(C)C)cc1 (stereo not shown) [Metoprolol], the “Log Kd at β2-AR” value is listed as -6.89 ± 0.09 [27].
